Values quoted from earlier work, collected in article PMC5812454 (Nanomedicine : nanotechnology, biology, and medicine, 2016).

Tested on: HER2-positive breast cancer
Details: trastuzumab itself; ref [4]; cited from earlier work

## trastuzumab: humanized anti-HER2/neu monoclonal antibody trastuzumab (Herceptin; Genentech, Inc.)
  tumor growth inhibition (in words): substantial degree of inhibition
